These are literature values, as cited in patent publication US7270977B2, “Polypeptides for identifying fungicidally active compounds” (priority 2001, dated 2007).

This data set concerns C. albicans cells. The settings on record: cells which have a plasmid with recombinant IMPDH; cited from earlier work.

Turning to `COc1c(C)c2c(c(O)c1C/C=C(\C)CCC(=O)O)C(=O)OC2` [mycophenolic acid], the “concentration up to which cells are resistant” value is recorded as “up to 40 μg/ml”.
